From article PMC4366854, “Molecular origins of synaptotagmin 1 activities on vesicle docking and fusion pore opening” (Scientific Reports, 2015)
Substitutions are numbered along the chain they refer to. Numbers in names are those of the source.

Protein sequences, listed by entry. Tags and fused reporters are not part of them. Chains listed by the source or under a name are the forms on record and can include a tag or linker. Residues count along the entry.
UniProt P63045, 1-96, chain 1 of 3: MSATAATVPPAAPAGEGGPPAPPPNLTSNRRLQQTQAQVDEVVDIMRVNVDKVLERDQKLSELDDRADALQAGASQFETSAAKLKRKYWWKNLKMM
ternary SNARE complex of GST-tagged soluble VAMP2 (1-96), syntaxin 1A (191-266) and His-tagged SNAP-25, UniProt P32851, 191-266, chain 2 of 3: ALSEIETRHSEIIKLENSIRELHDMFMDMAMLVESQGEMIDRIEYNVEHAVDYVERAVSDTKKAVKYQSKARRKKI
ternary SNARE complex of GST-tagged soluble VAMP2 (1-96), syntaxin 1A (191-266) and His-tagged SNAP-25, UniProt P60881, whole entry C85A/C88A/C90A/C92A, chain 3 of 3: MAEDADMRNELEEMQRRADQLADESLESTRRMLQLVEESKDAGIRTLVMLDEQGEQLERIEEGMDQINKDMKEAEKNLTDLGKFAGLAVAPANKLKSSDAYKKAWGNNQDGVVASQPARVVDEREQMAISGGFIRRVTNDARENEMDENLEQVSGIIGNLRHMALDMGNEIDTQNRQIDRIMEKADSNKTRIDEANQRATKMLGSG

B1: wild-type Syt1 (recombinant synaptotagmin 1, amino acids 50-421, C74A/C75A/C77A/C79A/C82S) (domain or fragment, UniProt P21707 50-421, looked up)
chain: LHKIPLPPWALIAIAIVAVLLVVTAAFAVAKKSLFKKKNKKKGKEKGGKNAINMKDVKDLGKTMKDQALKDDDAETGLTDGEEKEEPKEEEKLGKLQYSLDYDFQNNQLLVGIIQAAELPALDMGGTSDPYVKVFLLPDKKKKFETKVHRKTLNPVFNEQFTFKVPYSELGGKTLVMAVYDFDRFSKHDIIGEFKVPMNTVDFGHVTEEWRDLQSAEKEEQEKLGDICFSLRYVPTAGKLTVVILEAKNLKKMDVGGLSDPYVKIHLMQNGKRLKKKKTTIKKNTLNPYYNESFSFEVPFEQIQKVQVVVTVLDYDKIGKNDAIGKVFVGYNSTGAELRHWSDMLANPRRPIAQWHTLQVEEEVDAMLAVKK
notes: synaptotagmin 1 (Syt1), amino acids 50-421; source: E. coli BL21 (DE3), purified
B2: Syt1 4W (M173W/F234W/V304W/I367W) (domain or fragment, UniProt P21707 50-421, looked up)
chain: B1 chain with M124W, F185W, V255W, I318W
notes: synaptotagmin 1 (Syt1), amino acids 50-421; loop region mutant of m1; source: E. coli BL21 (DE3), purified
B3: Syt1 2A(B) (V304A/I367A) (domain or fragment, UniProt P21707 50-421, looked up)
chain: B1 chain with V255A, I318A
notes: as for B2
B4: Syt1 QQQ (Lys326, Lys327, Lys331 to Gln) (domain or fragment, UniProt P21707 50-421, looked up)
chain: B1 chain with K277Q, K278Q, K282Q
notes: synaptotagmin 1 (Syt1), amino acids 50-421; polybasic region mutant of m1; The methods print L326/327/331Q; also called Syt1 QQQ (L326/327/331Q); source: E. coli BL21 (DE3), purified
B5: Syt1 2W(A) (M173W/F234W) (domain or fragment, UniProt P21707 50-421, looked up)
chain: B1 chain with M124W, F185W
notes: as for B2
B6: Syt1 2W(B) (V304W/I367W) (domain or fragment, UniProt P21707 50-421, looked up)
chain: B1 chain with V255W, I318W
notes: as for B2
B7: Syt1-C2A*B* (D230A/D232A/D363A/D365A) (domain or fragment, UniProt P21707 50-421, looked up)
chain: B1 chain with D181A, D183A, D314A, D316A
notes: as for B1
B8: Syt1-C2A* (D230A/D232A) (domain or fragment, UniProt P21707 50-421, looked up)
chain: B1 chain with D181A, D183A
notes: as for B1
B9: Syt1-C2B* (D363A/D365A) (domain or fragment, UniProt P21707 50-421, looked up)
chain: B1 chain with D314A, D316A
notes: as for B1
B10: Syt1 Y311N (domain or fragment, UniProt P21707 50-421, looked up)
chain: B1 chain with Y262N
notes: synaptotagmin 1 (Syt1), amino acids 50-421; mutant of m1; source: E. coli BL21 (DE3), purified
B11: Syt1 2A(A) (M173A/F234A) (domain or fragment, UniProt P21707 50-421, looked up)
chain: B1 chain with M124A, F185A
notes: as for B2
B12: Syt1 4A (M173A/F234A/V304A/I367A) (domain or fragment, UniProt P21707 50-421, looked up)
chain: B1 chain with M124A, F185A, V255A, I318A
notes: as for B2

biological target: ternary SNARE complex of GST-tagged soluble VAMP2 (1-96), syntaxin 1A (191-266) and His-tagged SNAP-25 (rat, UniProt P63045 1-96; P32851 191-266; P60881 1-206, C85A | C88A | C90A | C92A); assay: pull-down; GST pull-down: ternary SNARE complex (GST-VAMP2 1-96 / syntaxin 1A 191-266 / His-SNAP-25) held on glutathione-agarose beads; wild-type Syt1 or mutants added in cleavage buffer (50 mM Tris-HCl pH 8.0, 150 mM NaCl, 0.8% OG) with 500 uM Ca2+, 4 °C, 1 h; SDS-PAGE, Coomassie blue; wild type also tested with BSA, 200 uM IP3 or without Ca2+; settings: both partners purified

Binder	binding result
B1	binds
B2	binds
B3	binds
B4	binds
B5	binds
B6	binds
B7	binds
B8	binds
B9	binds
B10	binds
B11	binds
B12	binds
